This test is filed under the species Homo sapiens. Kind of test: Selectivity index, ratio of IC50 for inhibition of recombinant full length human N-terminal FLAG-tagged EZH1 in PRC2 complex expressed in baculovirus system to IC50 for inhibition of N-terminal His-tagged EZH2 in human PCR2 complex (2 to end residues) expressed in Sf9 cells.

Structures are written as SMILES. Where only a bound is given, the exact number is not on record here.

In the case of `CCN(c1cc(-c2ccc(CN3CCN(CCCCCCCOc4cccc5c4C(=O)N(C4CCC(=O)NC4=O)C5=O)CC3)cc2)cc(C(=O)NCc2c(C)cc(C)[nH]c2=O)c1C)C1CCOCC1` (stereo unspecified), the Ratio IC50 is above 66.
